Test results reported in patent US9708311B2, “Benzimidazole derivatives as EP4 antagonists” (BAYER PHARMA AKTIENGESELLSCHAFT, priority 2012, dated 2017).

The chains behind the UniProt entries cited, without tags or fusion partners. Where a name states a change or a piece, a line headed by the entry shows the natural chain unless it says otherwise.
UniProt P35408: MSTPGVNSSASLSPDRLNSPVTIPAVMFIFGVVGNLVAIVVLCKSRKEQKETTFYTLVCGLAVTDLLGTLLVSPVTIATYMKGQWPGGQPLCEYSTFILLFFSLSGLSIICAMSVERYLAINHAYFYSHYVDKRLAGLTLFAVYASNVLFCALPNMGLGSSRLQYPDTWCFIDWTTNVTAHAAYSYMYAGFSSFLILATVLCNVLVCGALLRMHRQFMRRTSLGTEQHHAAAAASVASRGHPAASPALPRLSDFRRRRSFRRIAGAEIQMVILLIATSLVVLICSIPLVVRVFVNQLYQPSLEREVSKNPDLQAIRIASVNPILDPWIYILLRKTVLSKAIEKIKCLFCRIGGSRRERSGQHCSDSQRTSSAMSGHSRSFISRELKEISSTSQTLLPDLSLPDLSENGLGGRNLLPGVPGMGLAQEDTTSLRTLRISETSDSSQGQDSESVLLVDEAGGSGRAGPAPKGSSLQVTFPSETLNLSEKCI

Molecular target: human EP4 receptor (Homo sapiens (Human), UniProt P35408)
Assay: Test for antagonism of the human EP4 receptor signal (cAMP HTRF)
Assay type: cell-based
Settings: cells expressing hEP4, PGE2 at EC80 (0.4 nM), cAMP TR-FRET
From the text: The binding of the agonist prostaglandin E2 (PGE2) to the EP4 subtype of human hPGE2-R (hEP4-R) induces the activation of membrane-bound adenylate cyclases and thus the formation of cAMP. In the presence of the phosphodiesterase inhibitor IBMX, this cAMP accumulates intracellularly and is employed in a competitive detection procedure after cell lysis. In this procedure, it competes with a fluorescence-labelled cAMP (cAMP-d2) for binding to an Eu cryptate-labelled anti-cAMP antibody. In the absence of cellular cAMP, a complex is formed between the Eu cryptate-labelled anti-cAMP antibody and the cAMP-d2 molecule, which after excitation at 337 nm makes possible an energy transfer based on FRET (fluorescence resonance energy transfer) to the cAMP-d2 tracer and leads to a long-lasting fluorescence signal (emission at 665 and 620 nm). This signal is time-resolved, i.e. measured in a suitable measuring apparatus after decay of the background fluorescence (time resolved; TR-FRET). The wave ratio determination (emission 665 nm/emission 620 nm*10000) moreover makes it possible to standardize individual measurement differences in the added amounts of the detection reagents.
By means of prostaglandin E2 administration and increase in the intracellular cAMP, a lowering of the FRET signal occurs, which in the case of an antagonistic substance action increases again. […]

| SMILES | IC50 [nM] |
| --- | --- |
| CCn1c2ccc(-c3nc4cc(C(=O)O)ccc4n3CCOC)cc2c2ccc(F)cc21 [Example 10, 2-(9-Ethyl-7-fluoro-9H-carbazol-3-yl)-1-(2-methoxyethyl)-1H-benzimidazole-5-carboxylic acid] | 10.3 |
| CCn1c2ccccc2c2cc(-c3nc4c(OC)c(C(=O)O)ccc4n3CC3CC3)ccc21 [Example 104, 1-(Cyclopropylmethyl)-2-(9-ethyl-9H-carbazol-3-yl)-4-methoxy-1H-benzimidazole-5-carboxylic acid] | 64.4 |
